Values of other authors in patent US8216550B2, “Luciferins” (University of Massachusetts, priority 2007, dated 2012).

Chains of the proteins cited; added tags and fusions are not shown.
UniProt P08659, whole entry: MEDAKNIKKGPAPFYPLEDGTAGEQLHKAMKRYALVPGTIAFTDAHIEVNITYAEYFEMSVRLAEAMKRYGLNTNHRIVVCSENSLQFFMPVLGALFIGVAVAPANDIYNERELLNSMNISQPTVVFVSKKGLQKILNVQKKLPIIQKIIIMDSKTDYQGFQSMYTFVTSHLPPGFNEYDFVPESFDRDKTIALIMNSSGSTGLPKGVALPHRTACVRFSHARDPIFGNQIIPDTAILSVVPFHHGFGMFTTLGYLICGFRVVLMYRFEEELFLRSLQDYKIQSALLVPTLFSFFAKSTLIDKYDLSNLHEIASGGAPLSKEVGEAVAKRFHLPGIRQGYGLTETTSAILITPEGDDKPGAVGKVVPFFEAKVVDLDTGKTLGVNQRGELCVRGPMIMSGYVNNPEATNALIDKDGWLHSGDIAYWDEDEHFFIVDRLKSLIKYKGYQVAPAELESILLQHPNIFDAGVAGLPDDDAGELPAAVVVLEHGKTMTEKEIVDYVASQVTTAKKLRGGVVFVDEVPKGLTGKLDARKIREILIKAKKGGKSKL

Molecular target: Firefly luciferase (Photinus pyralis, UniProt P08659)
Conditions: firefly luciferase combined with firefly luciferin, yellow-green light; cited from earlier work

Structure (SMILES): O=C(O)[C@H]1CSC(c2nc3ccc(O)cc3s2)=N1 [D-luciferin]
- emitted light wavelength: 560 nm
